Experimental data taken from US20120090043A1, “TARGETS FOR RETROVIRUS ASSOCIATED DISEASES” (priority 2009, published 2012).

Test system: HTLV-1 LTR promoter transactivation by HTLV-1 Tax
Experiment: Transactivation assay, HTLV-1 LTR luciferase reporter with HTLV-1 Tax
Type: cell-based
Conditions: HEK293 cells co-transfected with pHTLV1LTR-Luc, HTLV-1 Tax and the human ORF; relative luciferase activity 24 h post-transfection; positive if >=2 or <=0.5 and p<0.05
Description: The plasmids pHIV1LTR-Luc or pHTLV1LTR-Luc containing a luciferase reporter gene under the control of the HIV-1 or HTLV-1 LTR promoters and plasmids expressing either HIV-1 Tat or HTLV-1 Tax and each human ORF found to interact with viral proteins were transfected into 10^4 HEK293 cells using the calcium phosphate method. Twenty-four hours post-transfection, cells were washed three times with PBS, lysed and luciferase activities determined from two independent transfection experiments in triplicate. We computed a paired t-test to assess the difference of the means between samples with and without the human interactor. For a trial to be considered positive, the relative luciferase activities has to be >=2 or <=0.5, and the p-value of the t-test<0.05.
Many HIV/HTLV-human interactions in our data set (130/212) involved the retroviral transactivator proteins HTLV-1 Tax (57/212), HTLV-2 Tax2 (49/212), HIV-1 Tat (10/212) and HIV-2 Tat (14/212). Human proteins interacting with viral transactivators likely influence Tat or Tax transactivation. […] Co-transfection of interacting human ORFs identified 71 proteins (54% of the 131 human targets in our data set) that regulated HIV (26.7% of targets), HTLV (37.4% of targets) or both (9.9% of targets) LTR promoter activation by Tat or Tax (see Tables 7 and 8; Table 13 below containing quantitative data on the regulation of transactivation). […]

FTH1: human host interactor protein, Gene ID 2495, expressed from transfected ORF vector
HTLV_LTR transactiv.: 0.17 fold change
